Most compounds without a hit are left out; they make up all but 2.1% or so of the library.
Yeast UUG start = alters start codon recognition fidelity in yeast. S. cerevisiae UUG-firefly luciferase reporter, luminescence/redox ratio. 350,000 tested, 0.13% active. activity score, % at 18.7 µM. AID 602363;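 active means replicate mean at a twofold rise or more, about +100% in these data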;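 further: firefly luciferase made from a UUG start codon reports start codon fidelity; reporter light over untreated wells divided by growth signal over untreated wells; some hits fall short of that in this replicate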
miR122 inh = miR-122 inhibition in Huh7 cells; Huh7 miR-122 Renilla luciferase sensor, 48 h; neutral wells = 0, positive control = 100; activation (reporter increase), % at 12.5 µM; 340,000 tested, 0.3% active;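 active = mean replicate activation score at least 90 and every replicate individually at or above 90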;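 note: higher luciferase means less miR-122 activity so hits act as miR-122 inhibitors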
Wnt bcat act = Wnt/beta-catenin pathway activation. AID 743398. 300,000 tested, 1.2% active. Wnt/beta-catenin reporter cell assay, activator, plate reader. activation, % at 9.35 µM; in the data active = activation above about 30%, passing the limit was not always enough
TRPM1 prom inh = reduces MITF-dependent TRPM1 promoter luciferase signal | SK-MEL-5 TRPM1 promoter luciferase, 24 h | inhibition, % at 12.5 µM | 330,000 tested, 0.83% active | AID 488899;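 active = mean inhibition across replicates of 60% or more, whatever share of single replicates reaches that level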
PGC1a acetyl inh = lowers PGC1a acetylation signal in U2OS cells; AlphaScreen anti-acetyl-lysine; with virally co-expressed GCN5 acetyltransferase; 350,000 tested, 0.17% active; AID 651687; inhibition, % at 15.6 µM;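 active = every replicate shows inhibition of at least 40%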
MITF act = MITF TRPM1 promoter activation in melanoma cells; 300,000 tested, 0.75% active; SK-MEL-5 TRPM1-promoter luciferase, 24 h; % of positive control, neutral wells = 0; activation, % at 12.5 µM;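 active = mean activation of at least 80% with every replicate also reaching 80%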
Large screens that a line does not name were inactive; ! = a repeat was not active; [ ] = another dose, or the depositor's remark.

O=S(=O)(c1ccccc1)N1C[C@H]2[C@@H](c3ccccc31)[C@H](CO)N2Cc1ccc2c(c1)OCO2	none (no result: Wnt bcat act, TRPM1 prom inh, MITF act)
O=S(=O)(c1ccccc1)N1C[C@H]2[C@@H](c3ccccc31)[C@@H](CO)N2Cc1ccc2c(c1)OCO2	miR122 inh 140.0[16.7 µM] (no result: Wnt bcat act, TRPM1 prom inh, MITF act)
NC(=S)NN=Cc1nccc2ccccc12	none
Cc1cnc(C=NNC(N)=S)c2cccc(N)c12	TRPM1 prom inh 65.7 (no result: Yeast UUG start, MITF act)
N#Cc1cccc(-c2ccc(C3[C@@H]4CN(Cc5cocn5)C[C@H]3N4)cc2)c1 (stereo not given in full)	none (no result: Yeast UUG start, miR122 inh, Wnt bcat act, TRPM1 prom inh, MITF act)
N#Cc1cccc(-c2ccc(C3[C@@H]4CN(Cc5ccccc5F)C[C@H]3N4)cc2)c1 (stereo not given in full)	PGC1a acetyl inh 47.6! (no result: Yeast UUG start, miR122 inh, Wnt bcat act, TRPM1 prom inh, MITF act)
COc1ccccc1NS(=O)(=O)c1cc([N+](=O)[O-])ccc1N/N=C/c1c(C)[nH]c2ccccc12	none (no result: Wnt bcat act)
O=[N+]([O-])c1ccc(N/N=C/c2c[nH]c3ccccc23)c(S(=O)(=O)Nc2ccc(Cl)cc2)c1	miR122 inh 162.0 (no result: Wnt bcat act)
CCOc1ccc2nc(N3C(=O)CNC3=S)sc2c1	Wnt bcat act 50.6 (no result: Yeast UUG start, miR122 inh, MITF act)
Cc1cccc(C(=O)c2c(N)sc3c2CCC(C)C3)c1 (stereo not given)	none
Cc1cccc(C(=O)c2c(N)sc3c2CCCC3)c1	Wnt bcat act 37.5
C[C@H](CO)N1C[C@H](C)[C@@H](CN(C)S(=O)(=O)c2cccs2)Oc2ccc(NS(C)(=O)=O)cc2C1=O	none (no result: Wnt bcat act, TRPM1 prom inh, MITF act)
COc1ccccc1-c1cnc2c(c1)C(=O)N([C@H](C)CO)C[C@@H](C)[C@H](CN(C)Cc1cccnc1)O2	none (no result: Wnt bcat act, TRPM1 prom inh, MITF act)
Cc1cnc(C(=O)Nc2nnc(C(C)C)s2)cn1	Wnt bcat act 32.2 (no result: MITF act)
COc1cc2c(cc1NC(=O)C(Cl)Cl)-c1ccc(NC(=O)C(Cl)Cl)cc1C2	TRPM1 prom inh 74.2 (no result: Yeast UUG start, miR122 inh, PGC1a acetyl inh)
C[C@@H]1CN([C@@H](C)CO)C(=O)c2cccc(NS(=O)(=O)c3ccc(F)cc3)c2O[C@@H]1CN(C)S(=O)(=O)c1ccc(Cl)cc1	none (no result: Wnt bcat act, TRPM1 prom inh, MITF act)
COc1ccc(C(=O)NC(=S)Nc2nc(C)cc(C)n2)cc1Br	Wnt bcat act 41.8 (no result: TRPM1 prom inh, MITF act)
Cc1cc(C)n2c(Nc3ccc4c(c3)OCCO4)c(-c3ccccc3)nc2n1	Wnt bcat act 40.9 (no result: Yeast UUG start, PGC1a acetyl inh, MITF act)
Cc1cc(C)n2c(Nc3ccc4c(c3)OCCO4)c(C(C)C)nc2n1	none (no result: Yeast UUG start, miR122 inh, TRPM1 prom inh, PGC1a acetyl inh, MITF act)
COCCN(C(=O)CCl)C(C(=O)NC1CCCCC1)c1ccccc1C (stereo not given)	TRPM1 prom inh 78.4 (no result: Wnt bcat act)
COCC(=O)Nc1nc2ccc(C)cc2s1	Wnt bcat act 39.7 (no result: Yeast UUG start, miR122 inh, PGC1a acetyl inh)
CS(=O)(=O)c1ccc2nc(NC(=O)CS(=O)(=O)Cc3ccccc3)sc2c1	none (no result: Yeast UUG start, miR122 inh)
Cc1ccc2nc(NC(=O)CS(=O)(=O)Cc3ccccc3)sc2c1	Wnt bcat act 40.1
Cc1ccc2nc(NC(=O)COC(=O)c3ccncc3)sc2c1	none (no result: Yeast UUG start, miR122 inh)
COc1ccc(S(=O)(=O)N(C)C[C@H]2OCCCC[C@@H](C)Oc3ccc(NC(=O)Nc4c(C)noc4C)cc3C(=O)N([C@@H](C)CO)C[C@@H]2C)cc1	none (no result: Wnt bcat act, TRPM1 prom inh, MITF act)
S=C(c1ccc(-c2ccc(Cl)cc2Cl)o1)N1CCCCC1	none
S=C(c1ccc(-c2ccc(Br)cc2)o1)N1CCOCC1	Wnt bcat act 52.6 (no result: TRPM1 prom inh, MITF act)
S=C(c1ccc(-c2ccc(Br)cc2)o1)N1CCCCC1	Wnt bcat act 46.1 (no result: PGC1a acetyl inh)
S=C(c1ccc(-c2ccc(Cl)cc2Cl)o1)N1CCCC1	Wnt bcat act 33.0 (no result: TRPM1 prom inh, MITF act)
S=C(c1ccc(-c2ccccc2Cl)o1)N1CCOCC1	none (no result: Wnt bcat act)
S=C(c1ccc(-c2ccc(Cl)c(Cl)c2)o1)N1CCOCC1	MITF act 113.5 (no result: Wnt bcat act)
C[C@H]1CN([C@@H](C)CO)C(=O)Cc2cc(NS(=O)(=O)c3ccccc3)ccc2O[C@@H]1CN(C)Cc1ccncc1	none (no result: Wnt bcat act, TRPM1 prom inh, MITF act)
COCC(C)n1c(SCC(=O)NC(=O)Cc2ccccc2)nc2ccccc2c1=O (stereo not given)	miR122 inh 143.9
COC(=O)CSc1nc2ccccc2c(=O)n1C	Wnt bcat act 41.7
COCC(C)n1c(SCC(=O)NNC(=O)c2ccccc2)nc2ccccc2c1=O (stereo not given)	none (no result: PGC1a acetyl inh)
O=C(O)c1ccc(N/N=C/c2ccnc3ccccc23)cc1	none
O=C(O)c1ccc(N/N=C/c2cccc3cccnc23)cc1	Wnt bcat act 40.8
Oc1ccccc1/C=N/Nc1cccc2cccnc12	Wnt bcat act 67.2 (no result: MITF act)

Screening results as filed in PubChem BioAssay.
